Test [1] has as its system SPCSV. The experiment in a line: Virus accumulation (RT-qPCR of coat protein RNA) in coinfected sweetpotato plants grown in culture medium: SPCSV. In kind it is in vivo, Sweet potato chlorotic stunt virus. The protocol:
(§1) Since tests in culture medium consume smaller amounts of compounds and can be carried out under relatively controlled conditions, sweetpotato plants coinfected with SPCSV and SPFMV were grown in medium supplemented with one of the 30 inhibitor candidates at a concentration of 50 μM. Their effects on plant growth were monitored by imaging the plants once a week. […] In addition, virus accumulation was quantified by measuring the relative abundance of the transcripts encoding viral coat proteins using RT-qPCR ([32]). The effect of individual compounds on virus accumulation was estimated by comparing treated and control plants. […]
(§2) For HTS, the activity of CSR3 was calculated by measuring the change in fluorescence as a function of the reaction time using MARS Data Analysis software (BMG Labtech). To evaluate the CSR3 inhibition efficiency of individual compounds, the PI of each compound was calculated using the slope values for the sample, positive control, and negative control according to the following equation: PI = 100 × [1 − (sample − positive)/(negative − positive)]%. IC50 and DSS values were calculated using concentration-specific PI values according to a previous study ([31]). Relative gene expression was calculated using the classical 2^−ΔΔ^CT method ([63]).

Test [2] deals with SPCSV. The note with it: plants in soil, 10 μM foliar spray twice a week for 1 month, vs water-treated.
For test [3], the system named is SPFMV. The experiment in a line: Virus accumulation (RT-qPCR of coat protein RNA) in coinfected sweetpotato plants grown in culture medium: SPFMV. It counts as in vivo, Sweet potato feathery mottle virus. The protocol:
as §1, §2

The subject of test [4] is SPFMV. The note with it: plants in soil, 10 μM foliar spray twice a week for 1 month, vs water-treated.
[5] abbreviates: 50 μM in culture medium, 28 days, relative to DMSO control.
[6] abbreviates: plants in culture medium, 50 μM.

Turning to `CN1CCc2cccc3c2[C@H]1Cc1ccc(O)c(O)c1-3` [FIMM000096, reference compound], the “SPCSV_FC (fold change of viral accumulation)” value in the test with SPCSV [1] (setting [5]) turned out to be 0.188. For the same molecule, the “viral titer SPCSV (log2 fold change relative to controls)” value with SPCSV [1] (setting [6]) was −2.41. The “log2 fold change in coat protein expression of SPCSV” value in the test on SPCSV [2] is listed as −1.41. Moreover, in the test with SPFMV [3] (setting [5]), the “SPFMV_FC (fold change of viral accumulation)” value turned out to be 0.5855. In addition, the “viral titer SPFMV (log2 fold change relative to controls)” value in the test on SPFMV [3] (setting [6]) was −0.77. Besides, the “log2 fold change in coat protein expression of SPFMV” value in the test on SPFMV [4] was −1.06.
